Assay results: patent publication US11541028B2, “Peptide pharmaceuticals for treatment of NASH and other disorders” (Mederis Diabetes LLC, priority 2018, dated 2023)

Protein sequences, listed by entry. Tags and fused reporters are not part of them. Residues count along the entry.
UniProt O35659, 22-463 limits assumed: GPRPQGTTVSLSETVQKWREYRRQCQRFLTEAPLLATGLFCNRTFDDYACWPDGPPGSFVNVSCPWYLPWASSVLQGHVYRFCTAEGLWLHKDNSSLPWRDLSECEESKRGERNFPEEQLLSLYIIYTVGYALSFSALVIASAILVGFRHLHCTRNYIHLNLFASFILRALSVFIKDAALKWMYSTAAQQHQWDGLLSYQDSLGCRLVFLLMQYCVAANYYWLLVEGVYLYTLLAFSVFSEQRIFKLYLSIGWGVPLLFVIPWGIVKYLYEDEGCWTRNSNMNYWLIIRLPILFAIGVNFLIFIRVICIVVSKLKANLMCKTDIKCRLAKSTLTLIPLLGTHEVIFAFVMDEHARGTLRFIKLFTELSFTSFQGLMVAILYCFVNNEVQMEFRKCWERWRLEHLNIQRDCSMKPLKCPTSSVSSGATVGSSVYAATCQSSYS

target: GLP-1 R (Mus musculus, UniProt O35659); assay: Cerep cellular assay, stimulation of cAMP levels, GLP-1 (murine cell line); conditions: n.c. = EC50 not calculable

| EC50 GLP-1 R (nM) | Structure (SMILES) |
| --- | --- |
| n.c. | CCCCCCCCCCCCO[C@@H]1O[C@H](C(=O)NCCCC[C@H](NC(=O)[C@H](CC(=O)O)NC(=O)[C@H](CC(C)C)NC(=O)[C@H](Cc2ccc(O)cc2)NC(=O)[C@H](CCCCN)NC(=O)[C@H](CO)NC(=O)[C@H](Cc2ccc(O)cc2)NC(=O)[C@H](CC(=O)O)NC(=O)[C@H](CO)NC(=O)[C@@H](NC(=O)[C@H](Cc2ccccc2)NC(=O)[C@@H](NC(=O)CNC(=O)[C@H](CCC(N)=O)NC(=O)C(C)(C)NC(=O)[C@@H](N)Cc2cnc[nH]2)[C@@H](C)O)[C@@H](C)O)C(=O)N[C@@H](CCCNC(=N)N)C(=O)N[C@@H](CCCNC(=N)N)C(=O)NC(C)(C)C(N)=O)[C@@H](O)[C@H](O)[C@H]1O |
| n.c. | CCCCCCCCCCCCO[C@@H]1O[C@H](C(=O)NCCCC[C@H](NC(=O)[C@H](CC(=O)O)NC(=O)[C@H](CC(C)C)NC(=O)[C@H](Cc2ccc(O)cc2)NC(=O)[C@H](CCCCN)NC(=O)[C@H](CO)NC(=O)[C@H](Cc2ccc(O)cc2)NC(=O)[C@H](CC(=O)O)NC(=O)[C@H](CO)NC(=O)[C@@H](NC(=O)[C@H](Cc2ccccc2)NC(=O)[C@@H](NC(=O)CNC(=O)[C@H](CCC(N)=O)NC(=O)C(C)(C)NC(=O)[C@@H](N)Cc2cnc[nH]2)[C@@H](C)O)[C@@H](C)O)C(=O)NC(C)(C)C(=O)N[C@@H](CCCNC(=N)N)C(N)=O)[C@@H](O)[C@H](O)[C@H]1O |
| n.c. | CCCCCCCCCCCCO[C@@H]1O[C@H](C(=O)NCCCC[C@H](NC(=O)[C@H](CC(=O)O)NC(=O)[C@H](CC(C)C)NC(=O)[C@H](Cc2ccc(O)cc2)NC(=O)[C@H](CCCCN)NC(=O)[C@H](CO)NC(=O)[C@H](Cc2ccc(O)cc2)NC(=O)[C@H](CC(=O)O)NC(=O)[C@H](CO)NC(=O)[C@@H](NC(=O)[C@H](Cc2ccccc2)NC(=O)[C@@H](NC(=O)CNC(=O)[C@H](CCC(N)=O)NC(=O)C(C)(C)NC(=O)[C@@H](N)Cc2cnc[nH]2)[C@@H](C)O)[C@@H](C)O)C(=O)NC(C)(C)C(N)=O)[C@@H](O)[C@H](O)[C@H]1O |
| n.c. | CCCCCCCCCCCCO[C@@H]1O[C@H](C(=O)NCCCC[C@H](NC(=O)[C@H](CCCNC(=N)N)NC(=O)[C@H](CCCNC(=N)N)NC(=O)[C@H](CO)NC(=O)[C@H](CC(=O)O)NC(=O)[C@H](CC(C)C)NC(=O)[C@H](Cc2ccc(O)cc2)NC(=O)[C@H](CCCCN)NC(=O)[C@H](CO)NC(=O)[C@H](Cc2ccc(O)cc2)NC(=O)[C@H](CC(=O)O)NC(=O)[C@H](CO)NC(=O)[C@@H](NC(=O)[C@H](Cc2ccccc2)NC(=O)[C@@H](NC(=O)CNC(=O)[C@H](CCC(N)=O)NC(=O)[C@H](CO)NC(=O)[C@@H](N)Cc2cnc[nH]2)[C@@H](C)O)[C@@H](C)O)C(=O)NC(C)(C)C(N)=O)[C@@H](O)[C@H](O)[C@H]1O |
| n.c. | CCCCCCCCCCCCO[C@@H]1O[C@H](C(=O)NCCCC[C@H](NC(=O)C(C)(C)NC(=O)[C@H](CCCNC(=N)N)NC(=O)C(C)(C)NC(=O)[C@H](CC(=O)O)NC(=O)[C@H](CC(C)C)NC(=O)[C@H](Cc2ccc(O)cc2)NC(=O)[C@H](CCCCN)NC(=O)[C@H](CO)NC(=O)[C@H](Cc2ccc(O)cc2)NC(=O)[C@H](CC(=O)O)NC(=O)[C@H](CO)NC(=O)[C@@H](NC(=O)[C@H](Cc2ccccc2)NC(=O)[C@@H](NC(=O)CNC(=O)[C@H](CCC(N)=O)NC(=O)C(C)(C)NC(=O)[C@@H](N)Cc2cnc[nH]2)[C@@H](C)O)[C@@H](C)O)C(N)=O)[C@@H](O)[C@H](O)[C@H]1O |
| n.c. | CCCCCCCCCCCCO[C@@H]1O[C@H](C(=O)NCCCC[C@H](NC(=O)[C@H](CC(=O)O)NC(=O)[C@H](CC(C)C)NC(=O)[C@H](Cc2ccc(O)cc2)NC(=O)[C@H](CCCCN)NC(=O)[C@H](CO)NC(=O)[C@H](Cc2ccc(O)cc2)NC(=O)[C@H](CC(=O)O)NC(=O)[C@H](CO)NC(=O)[C@@H](NC(=O)[C@H](Cc2ccccc2)NC(=O)[C@@H](NC(=O)CNC(=O)[C@H](CCC(N)=O)NC(=O)C(C)(C)NC(=O)[C@@H](N)Cc2cnc[nH]2)[C@@H](C)O)[C@@H](C)O)C(=O)N[C@@H](CCCNC(=N)N)C(=O)NC(C)(C)C(N)=O)[C@@H](O)[C@H](O)[C@H]1O |
| n.c. | CCCCCCCCCCCCO[C@@H]1O[C@H](C(=O)NCCCC[C@H](NC(=O)C(C)(C)NC(=O)[C@H](CCCNC(=N)N)NC(=O)[C@H](CC(=O)O)NC(=O)[C@H](CC(C)C)NC(=O)[C@H](Cc2ccc(O)cc2)NC(=O)[C@H](CCCCN)NC(=O)[C@H](CO)NC(=O)[C@H](Cc2ccc(O)cc2)NC(=O)[C@H](CC(=O)O)NC(=O)[C@H](CO)NC(=O)[C@@H](NC(=O)[C@H](Cc2ccccc2)NC(=O)[C@@H](NC(=O)CNC(=O)[C@H](CCC(N)=O)NC(=O)C(C)(C)NC(=O)[C@@H](N)Cc2cnc[nH]2)[C@@H](C)O)[C@@H](C)O)C(N)=O)[C@@H](O)[C@H](O)[C@H]1O |
| n.c. | CCCCCCCCCCCCO[C@@H]1O[C@H](C(=O)NCCCC[C@H](NC(=O)[C@H](CC(=O)O)NC(=O)[C@H](CC(C)C)NC(=O)[C@H](Cc2ccc(O)cc2)NC(=O)[C@H](CCCCN)NC(=O)[C@H](CO)NC(=O)[C@H](Cc2ccc(O)cc2)NC(=O)[C@H](CC(=O)O)NC(=O)[C@H](CO)NC(=O)[C@@H](NC(=O)[C@H](Cc2ccccc2)NC(=O)[C@@H](NC(=O)CNC(=O)[C@H](CCC(N)=O)NC(=O)C(C)(C)NC(=O)[C@@H](N)Cc2cnc[nH]2)[C@@H](C)O)[C@@H](C)O)C(=O)N[C@@H](CCCCNC(=N)N)C(=O)NC(C)(C)C(N)=O)[C@@H](O)[C@H](O)[C@H]1O |
